Results on one molecule are retold here after patent publication US9802960B2 (MILLENNIUM PHARMACEUTICALS, INC., priority 2014, dated 2017).

Amino acid sequences for entries named in this document (tags omitted).
UniProt Q8NEB9, whole entry: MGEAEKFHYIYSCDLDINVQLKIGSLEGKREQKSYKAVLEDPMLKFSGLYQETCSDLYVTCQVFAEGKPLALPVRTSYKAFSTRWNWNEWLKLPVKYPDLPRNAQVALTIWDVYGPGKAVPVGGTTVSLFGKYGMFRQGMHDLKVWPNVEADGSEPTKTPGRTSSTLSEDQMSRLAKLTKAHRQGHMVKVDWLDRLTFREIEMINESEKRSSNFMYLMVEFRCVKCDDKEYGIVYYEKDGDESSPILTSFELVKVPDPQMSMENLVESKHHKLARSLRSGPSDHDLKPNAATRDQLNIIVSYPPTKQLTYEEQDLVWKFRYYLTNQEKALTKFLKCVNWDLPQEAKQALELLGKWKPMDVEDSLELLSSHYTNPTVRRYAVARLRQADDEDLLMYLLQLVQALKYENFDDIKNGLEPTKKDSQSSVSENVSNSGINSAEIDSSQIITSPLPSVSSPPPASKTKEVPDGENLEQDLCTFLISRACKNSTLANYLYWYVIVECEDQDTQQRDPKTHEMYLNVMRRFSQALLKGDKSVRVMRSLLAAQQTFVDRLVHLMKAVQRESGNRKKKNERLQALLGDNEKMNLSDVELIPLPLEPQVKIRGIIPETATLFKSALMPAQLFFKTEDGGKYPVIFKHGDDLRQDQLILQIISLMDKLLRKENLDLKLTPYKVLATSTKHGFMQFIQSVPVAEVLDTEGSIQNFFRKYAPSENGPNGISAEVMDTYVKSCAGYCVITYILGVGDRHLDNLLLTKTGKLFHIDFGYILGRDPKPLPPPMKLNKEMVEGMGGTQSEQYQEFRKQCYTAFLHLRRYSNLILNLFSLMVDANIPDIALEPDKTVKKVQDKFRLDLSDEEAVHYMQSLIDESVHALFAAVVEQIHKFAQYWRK

A word on the inhibition: it is how much of the control response was suppressed.

This assay deals with Human VPS34 (Homo sapiens (Human), UniProt Q8NEB9). The experiment in a line: Human VPS34 enzyme assay (Adapta TR-FRET). Particulars: read-out: Percent Inhibition. Format: biochemical.

The structures appear in SMILES notation.

Regarding `Cc1nccc(Nc2cc(-c3cc(NS(=O)(=O)N(C)C)c4ccnn4c3)ccn2)n1` [Compound I-421, N,N-dimethyl-N′-(6-{2-[(2-methylpyrimidin-4-yl)amino]pyridin-4-yl}pyrazolo[1,5-a]pyridin-4-yl)sulfuric diamide], the inhibition at 1.11 µM came out at 90%.
